# Laboratory results as given in patent US20060079453A1, “Hla binding peptides and their uses” (priority 2002, published 2006).
# Read-outs that look alike come from different tables or passages of the source.
# Columns and labels:
# Test in all cases: biochemical
# Type in all cases: binding
# HLA-B*4403 = HLA-B*4403 (Homo sapiens, UniProt P01889, A223V/A65T/A93T/A95T/D201E/D98Y/E176V/E187L/E204Q/E69K/G107R/H137Y/K202T/L105A/L119I/N104T/N87E/Q56L/Q94N/R106L/R155S/R180L/S101N/S121R/S35A/S48T/T118I/V36M/W191S/Y140D/Y91S)
# HLA-B*1801 = HLA-B*1801 (Homo sapiens, UniProt P01889, A329T/A93T/A95T/C349S/D201E/D54G/D98Y/E176V/E187T/E204Q/E69T/K202T/Q94N/R155S/R180L/S121R/V306I/Y140S/Y195H/Y33H/Y91S)
# HLA-B*4402 = HLA-B*4402 (Homo sapiens, UniProt P01889, A223V/A65T/A93T/A95T/D201E/D98Y/E176V/E187L/E204Q/E69K/G107R/H137Y/K202T/L105A/L119I/N104T/N87E/Q56L/Q94N/R106L/R155S/R180D/S101N/S121R/S35A/S48T/T118I/V36M/W191S/Y140D/Y91S); settings: B*4402
# HLA-B*4002 = HLA-B*4002 (Homo sapiens, UniProt P01889, A65T/A93T/A95T/D138N/D201E/D98Y/E176V/E204Q/E69K/K202T/N87E/Q56L/Q94N/R180L/S48T/Y33H/Y91S)
# HLA-B*4001 = HLA-B*4001 (Homo sapiens, UniProt P01889, A65T/A93T/A95T/D138N/D98Y/E176V/E69K/N87E/Q56L/Q94N/R180L/S121R/S35A/S48T/T167S/V36M/W171L/Y33H/Y91S)
# HLA-B*4501 = HLA-B*4501 (Homo sapiens, UniProt P01889, A329T/A65T/A93T/A95T/C349S/D138N/D201E/D98Y/E176V/E187L/E204Q/E69K/H137Y/K202T/L119W/N87E/Q56L/Q94N/R155S/R180D/S121R/S35A/S48T/V127L/V306I/V36M/W191S/Y140L/Y33H/Y91S)
compound,measurement,setting,value
CC(C)C[C@H](NC(=O)[C@H](CC(N)=O)NC(=O)[C@H](CCC(=O)O)NC(=O)[C@H](C)N)C(=O)N[C@@H](Cc1c[nH]c2ccccc12)C(=O)N[C@H](C(=O)N[C@@H](CO)C(=O)N[C@H](C(=O)N[C@@H](Cc1ccc(O)cc1)C(=O)O)C(C)C)C(C)C,IC50,HLA-B*4403,178 nM
CC[C@H](C)[C@H](NC(=O)[C@H](Cc1ccccc1)NC(=O)[C@@H]1CCCN1C(=O)[C@H](CCCCN)NC(=O)[C@@H]1CCCN1C(=O)[C@@H]1CCCN1C(=O)[C@H](CCC(=O)O)NC(=O)[C@H](C)N)C(=O)N[C@H](C(=O)O)[C@@H](C)O,IC50,HLA-B*1801; B*1801,12800 nM
same,IC50,HLA-B*4402,> 34600 nM
same,IC50,HLA-B*4002; B*4002,7170 nM
CC[C@H](C)[C@H](NC(=O)[C@H](CCC(=O)O)NC(=O)[C@@H]1CCCN1C(=O)[C@H](CCC(=O)O)NC(=O)[C@@H](N)CS)C(=O)N[C@@H](CCC(N)=O)C(=O)N[C@@H](CC(N)=O)C(=O)N[C@H](C(=O)N[C@H](C(=O)O)[C@@H](C)O)[C@@H](C)O,IC50,HLA-B*1801; B*1801,6890 nM
same,IC50,HLA-B*4001; B*4001,5710 nM
same,IC50,HLA-B*4501; B*4501,2730 nM
same,IC50,HLA-B*4402,31800 nM
CSCC[C@H](NC(=O)[C@@H](NC(=O)[C@H](Cc1ccc(O)cc1)NC(=O)[C@H](C)NC(=O)[C@H](CCC(=O)O)NC(=O)[C@@H](N)CC(=O)O)C(C)C)C(=O)N[C@@H](C)C(=O)NCC(=O)N[C@H](C(=O)NCC(=O)O)C(C)C,IC50,HLA-B*4403; B*4403,4100 nM
CC(C)C[C@H](NC(=O)CNC(=O)[C@H](CCC(=O)O)NC(=O)[C@@H](N)CCC(=O)O)C(=O)N[C@@H](CCC(=O)O)C(=O)N[C@@H](C)C(=O)N[C@@H](CCCNC(=N)N)C(=O)NCC(=O)N[C@@H](CCC(=O)O)C(=O)N[C@@H](C)C(=O)O,IC50,HLA-B*4403; B*4403,302 nM
CC[C@H](C)[C@H](NC(=O)[C@H](CCCCN)NC(=O)[C@H](CCC(=O)O)NC(=O)[C@@H](N)CCC(=O)O)C(=O)N[C@@H](Cc1c[nH]c2ccccc12)C(=O)N[C@@H](CCC(=O)O)C(=O)N[C@@H](CCC(=O)O)C(=O)N[C@@H](CC(C)C)C(=O)N[C@@H](CO)C(=O)N[C@H](C(=O)O)C(C)C,IC50,HLA-B*1801; B*1801,73 nM
CC(C)C[C@H](NC(=O)[C@H](Cc1ccc(O)cc1)NC(=O)[C@H](CCC(=O)O)NC(=O)[C@@H](N)CCC(=O)O)C(=O)N[C@H](C(=O)N1CCC[C@H]1C(=O)N[C@@H](CCC(N)=O)C(=O)N[C@@H](CCC(N)=O)C(=O)NCC(=O)N[C@@H](Cc1ccccc1)C(=O)O)C(C)C,IC50,HLA-B*1801; B*1801,2.1 nM
same,IC50,HLA-B*4001; B*4001,26600 nM
same,IC50,HLA-B*4402,6.9 nM
CC[C@H](C)[C@H](NC(=O)[C@H](CO)NC(=O)[C@H](CC(=O)O)NC(=O)[C@H](CCC(=O)O)NC(=O)[C@H](CCCNC(=N)N)NC(=O)CNC(=O)[C@H](CCC(=O)O)NC(=O)[C@@H](N)Cc1ccccc1)C(=O)O,IC50,HLA-B*1801; B*1801,927 nM
same,IC50,HLA-B*4402,7710 nM
CSCC[C@H](NC(=O)[C@H](CO)NC(=O)[C@H](CCC(=O)O)NC(=O)[C@@H](N)Cc1ccccc1)C(=O)N1CCC[C@H]1C(=O)N[C@@H](CC(N)=O)C(=O)N1CCC[C@H]1C(=O)N[C@@H](CCC(=O)O)C(=O)NCC(=O)O,IC50,HLA-B*4403; B*4403,14 nM
same,IC50,HLA-B*4001; B*4001,30200 nM
same,IC50,HLA-B*4402,16500 nM
CC[C@H](C)[C@H](NC(=O)[C@H](C)NC(=O)[C@@H](NC(=O)[C@@H]1CCCN1C(=O)[C@@H](NC(=O)[C@H](CCCCN)NC(=O)[C@@H](NC(=O)[C@H](CC(N)=O)NC(=O)[C@H](CCC(=O)O)NC(=O)CN)C(C)C)[C@@H](C)CC)C(C)C)C(=O)O,IC50,HLA-B*4403; B*4403,6.7 nM
same,IC50,HLA-B*4002; B*4002,28 nM
CC(C)C[C@H](NC(=O)[C@H](CCC(=O)O)NC(=O)[C@@H](NC(=O)[C@H](CCC(=O)O)NC(=O)[C@@H](N)CCCCN)[C@@H](C)O)C(=O)N[C@@H](CCCNC(=N)N)C(=O)N[C@@H](CCCCN)C(=O)N[C@H](C(=O)N[C@@H](CCCCN)C(=O)N[C@H](C(=O)O)C(C)C)C(C)C,IC50,HLA-B*4403; B*4403,4.5 nM
CC(C)C[C@H](NC(=O)[C@H](CCC(=O)O)NC(=O)[C@@H](N)CC(C)C)C(=O)N[C@@H](CCCCN)C(=O)N[C@@H](CC(=O)O)C(=O)N[C@@H](C)C(=O)N[C@@H](CCC(N)=O)C(=O)N[C@@H](C)C(=O)NCC(=O)O,IC50,HLA-B*1801; B*1801,451 nM
same,IC50,HLA-B*4402,17300 nM
CC[C@H](C)[C@H](NC(=O)[C@H](C)NC(=O)[C@H](C)NC(=O)[C@H](CCC(N)=O)NC(=O)[C@H](Cc1ccccc1)NC(=O)[C@H](CCC(=O)O)NC(=O)[C@H](CO)NC(=O)[C@H](CCC(=O)O)NC(=O)[C@@H](N)CC(C)C)C(=O)N[C@@H](CO)C(=O)N[C@@H](CCCNC(=N)N)C(=O)N[C@@H](CCCCN)C(=O)N[C@@H](CCSC)C(=O)O,IC50,HLA-B*1801; B*1801,49 nM
same,IC50,HLA-B*4001; B*4001,310 nM
same,IC50,HLA-B*4501; B*4501,22 nM
same,IC50,HLA-B*4002; B*4002,72 nM
CC[C@H](C)[C@H](NC(=O)[C@H](CO)NC(=O)[C@H](CCC(=O)O)NC(=O)[C@@H](N)CC(C)C)C(=O)N[C@@H](CC(C)C)C(=O)N[C@@H](CCCNC(=N)N)C(=O)N[C@@H](CCCNC(=N)N)C(=O)N[C@@H](CCCNC(=N)N)C(=O)N[C@@H](Cc1ccccc1)C(=O)N[C@H](C(=O)O)[C@@H](C)O,IC50,HLA-B*4403; B*4403,87 nM
same,IC50,HLA-B*4001; B*4001,28500 nM
CC(C)[C@H](NC(=O)[C@H](CS)NC(=O)[C@H](CO)NC(=O)[C@H](C)NC(=O)CNC(=O)[C@H](Cc1ccccc1)NC(=O)[C@@H](NC(=O)[C@H](Cc1ccc(O)cc1)NC(=O)[C@H](CCCNC(=N)N)NC(=O)CNC(=O)[C@H](CCC(=O)O)NC(=O)[C@@H]1CCCN1)[C@@H](C)O)C(=O)O,IC50,HLA-B*1801; B*1801,4070 nM
same,IC50,HLA-B*4001; B*4001,2.9 nM
same,IC50,HLA-B*4402,778 nM
same,IC50,HLA-B*4002; B*4002,4.4 nM
CC(C)[C@H](NC(=O)[C@H](CS)NC(=O)[C@H](CO)NC(=O)[C@H](C)NC(=O)CNC(=O)[C@H](Cc1ccccc1)NC(=O)[C@@H](NC(=O)[C@H](Cc1ccc(O)cc1)NC(=O)[C@H](CCCNC(=N)N)NC(=O)CNC(=O)[C@H](CCC(=O)O)NC(=O)[C@@H]1CCCN1)[C@@H](C)O)C(=O)N[C@H](C(=O)O)[C@@H](C)O,IC50,HLA-B*1801; B*1801,5230 nM
same,IC50,HLA-B*4501; B*4501,673 nM
same,IC50,HLA-B*4402,1420 nM
same,IC50,HLA-B*4002; B*4002,737 nM
CC[C@H](C)[C@H](NC(=O)[C@H](CCC(=O)O)NC(=O)[C@@H](N)CCCNC(=N)N)C(=O)N[C@H](C(=O)N[C@@H](Cc1ccc(O)cc1)C(=O)N1CCC[C@H]1C(=O)N[C@@H](CC(N)=O)C(=O)N[C@@H](C)C(=O)N[C@@H](CO)C(=O)N[C@@H](CC(C)C)C(=O)O)[C@@H](C)CC,IC50,HLA-B*1801; B*1801,741 nM
same,IC50,HLA-B*4001; B*4001,2.3 nM
CSCC[C@H](NC(=O)[C@H](CCC(=O)O)NC(=O)[C@H](C)NC(=O)[C@H](CCCCN)NC(=O)[C@@H](NC(=O)[C@@H](NC(=O)[C@@H]1CCCN1C(=O)[C@H](CCC(=O)O)NC(=O)[C@@H](N)CCCNC(=N)N)C(C)C)[C@@H](C)O)C(=O)N[C@@H](CC(C)C)C(=O)O,IC50,HLA-B*4403; B*4403,41 nM
same,IC50,HLA-B*4402,84 nM
CC(C)C[C@H](NC(=O)[C@H](CCC(=O)O)NC(=O)[C@@H](N)[C@@H](C)O)C(=O)N[C@H](C(=O)N[C@@H](CCC(=O)O)C(=O)N1CCC[C@H]1C(=O)N[C@@H](CC(C)C)C(=O)N[C@H](C(=O)N1CCC[C@H]1C(=O)N[C@@H](CO)C(=O)NCC(=O)N[C@@H](C)C(=O)O)[C@@H](C)O)C(C)C,IC50,HLA-B*1801; B*1801,236 nM
same,IC50,HLA-B*4002; B*4002,59 nM
CC(C)C[C@H](NC(=O)[C@H](CC(N)=O)NC(=O)[C@H](CCC(=O)O)NC(=O)[C@@H](N)C(C)C)C(=O)N[C@@H](Cc1c[nH]c2ccccc12)C(=O)N[C@H](C(=O)N[C@H](C(=O)N[C@H](C(=O)N[C@@H](Cc1ccc(O)cc1)C(=O)O)C(C)C)[C@@H](C)O)C(C)C,IC50,HLA-B*4403,4860 nM
CEKCSKPCARV,IC50,HLA-B*1801; read-out: B*1801,1170 nM
FEGRLEDSVFA,IC50,HLA-B*1801; read-out: B*1801,178 nM
same,IC50,HLA-B*4001; read-out: B*4001,> 10100 nM
PECQPQNGSVTGF,IC50,HLA-B*1801; read-out: B*1801,6290 nM
same,IC50,HLA-B*4501; read-out: B*4501,> 22400 nM
same,IC50,HLA-B*4002; read-out: B*4002,5340 nM
SEDGQSLTRT,IC50,HLA-B*1801; read-out: B*1801,335 nM
same,IC50,HLA-B*4501; read-out: B*4501,4730 nM
